PubChem BioAssay AID1817 (Sanford-Burnham Center for Chemical Genomics, 2009)
This is a selection; strong and weak results do not stand in their true shares. Potency and affinity values are given separately. Some salts and complexes are drawn in separate pieces, as the source files them; their charges need not balance. Calls of active or inactive are those of the source.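 The calls were made as follows: active = displacement of at least 50% at 20 µM, with a fluorescence ratio check between 0.3 and a set limit; inactive = the rest.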

Sequences of proteins named here, by UniProt entry; tags and fusion partners are left off.
UniProt Q8IUQ4, whole entry: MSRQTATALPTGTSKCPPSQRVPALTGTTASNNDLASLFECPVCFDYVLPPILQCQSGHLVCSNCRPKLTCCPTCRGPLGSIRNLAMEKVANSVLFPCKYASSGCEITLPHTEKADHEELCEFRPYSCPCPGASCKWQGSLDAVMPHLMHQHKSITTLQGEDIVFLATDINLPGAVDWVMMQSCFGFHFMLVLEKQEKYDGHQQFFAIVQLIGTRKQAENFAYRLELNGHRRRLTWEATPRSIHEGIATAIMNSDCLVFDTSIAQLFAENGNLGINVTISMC
UniProt Q15149, whole entry partner: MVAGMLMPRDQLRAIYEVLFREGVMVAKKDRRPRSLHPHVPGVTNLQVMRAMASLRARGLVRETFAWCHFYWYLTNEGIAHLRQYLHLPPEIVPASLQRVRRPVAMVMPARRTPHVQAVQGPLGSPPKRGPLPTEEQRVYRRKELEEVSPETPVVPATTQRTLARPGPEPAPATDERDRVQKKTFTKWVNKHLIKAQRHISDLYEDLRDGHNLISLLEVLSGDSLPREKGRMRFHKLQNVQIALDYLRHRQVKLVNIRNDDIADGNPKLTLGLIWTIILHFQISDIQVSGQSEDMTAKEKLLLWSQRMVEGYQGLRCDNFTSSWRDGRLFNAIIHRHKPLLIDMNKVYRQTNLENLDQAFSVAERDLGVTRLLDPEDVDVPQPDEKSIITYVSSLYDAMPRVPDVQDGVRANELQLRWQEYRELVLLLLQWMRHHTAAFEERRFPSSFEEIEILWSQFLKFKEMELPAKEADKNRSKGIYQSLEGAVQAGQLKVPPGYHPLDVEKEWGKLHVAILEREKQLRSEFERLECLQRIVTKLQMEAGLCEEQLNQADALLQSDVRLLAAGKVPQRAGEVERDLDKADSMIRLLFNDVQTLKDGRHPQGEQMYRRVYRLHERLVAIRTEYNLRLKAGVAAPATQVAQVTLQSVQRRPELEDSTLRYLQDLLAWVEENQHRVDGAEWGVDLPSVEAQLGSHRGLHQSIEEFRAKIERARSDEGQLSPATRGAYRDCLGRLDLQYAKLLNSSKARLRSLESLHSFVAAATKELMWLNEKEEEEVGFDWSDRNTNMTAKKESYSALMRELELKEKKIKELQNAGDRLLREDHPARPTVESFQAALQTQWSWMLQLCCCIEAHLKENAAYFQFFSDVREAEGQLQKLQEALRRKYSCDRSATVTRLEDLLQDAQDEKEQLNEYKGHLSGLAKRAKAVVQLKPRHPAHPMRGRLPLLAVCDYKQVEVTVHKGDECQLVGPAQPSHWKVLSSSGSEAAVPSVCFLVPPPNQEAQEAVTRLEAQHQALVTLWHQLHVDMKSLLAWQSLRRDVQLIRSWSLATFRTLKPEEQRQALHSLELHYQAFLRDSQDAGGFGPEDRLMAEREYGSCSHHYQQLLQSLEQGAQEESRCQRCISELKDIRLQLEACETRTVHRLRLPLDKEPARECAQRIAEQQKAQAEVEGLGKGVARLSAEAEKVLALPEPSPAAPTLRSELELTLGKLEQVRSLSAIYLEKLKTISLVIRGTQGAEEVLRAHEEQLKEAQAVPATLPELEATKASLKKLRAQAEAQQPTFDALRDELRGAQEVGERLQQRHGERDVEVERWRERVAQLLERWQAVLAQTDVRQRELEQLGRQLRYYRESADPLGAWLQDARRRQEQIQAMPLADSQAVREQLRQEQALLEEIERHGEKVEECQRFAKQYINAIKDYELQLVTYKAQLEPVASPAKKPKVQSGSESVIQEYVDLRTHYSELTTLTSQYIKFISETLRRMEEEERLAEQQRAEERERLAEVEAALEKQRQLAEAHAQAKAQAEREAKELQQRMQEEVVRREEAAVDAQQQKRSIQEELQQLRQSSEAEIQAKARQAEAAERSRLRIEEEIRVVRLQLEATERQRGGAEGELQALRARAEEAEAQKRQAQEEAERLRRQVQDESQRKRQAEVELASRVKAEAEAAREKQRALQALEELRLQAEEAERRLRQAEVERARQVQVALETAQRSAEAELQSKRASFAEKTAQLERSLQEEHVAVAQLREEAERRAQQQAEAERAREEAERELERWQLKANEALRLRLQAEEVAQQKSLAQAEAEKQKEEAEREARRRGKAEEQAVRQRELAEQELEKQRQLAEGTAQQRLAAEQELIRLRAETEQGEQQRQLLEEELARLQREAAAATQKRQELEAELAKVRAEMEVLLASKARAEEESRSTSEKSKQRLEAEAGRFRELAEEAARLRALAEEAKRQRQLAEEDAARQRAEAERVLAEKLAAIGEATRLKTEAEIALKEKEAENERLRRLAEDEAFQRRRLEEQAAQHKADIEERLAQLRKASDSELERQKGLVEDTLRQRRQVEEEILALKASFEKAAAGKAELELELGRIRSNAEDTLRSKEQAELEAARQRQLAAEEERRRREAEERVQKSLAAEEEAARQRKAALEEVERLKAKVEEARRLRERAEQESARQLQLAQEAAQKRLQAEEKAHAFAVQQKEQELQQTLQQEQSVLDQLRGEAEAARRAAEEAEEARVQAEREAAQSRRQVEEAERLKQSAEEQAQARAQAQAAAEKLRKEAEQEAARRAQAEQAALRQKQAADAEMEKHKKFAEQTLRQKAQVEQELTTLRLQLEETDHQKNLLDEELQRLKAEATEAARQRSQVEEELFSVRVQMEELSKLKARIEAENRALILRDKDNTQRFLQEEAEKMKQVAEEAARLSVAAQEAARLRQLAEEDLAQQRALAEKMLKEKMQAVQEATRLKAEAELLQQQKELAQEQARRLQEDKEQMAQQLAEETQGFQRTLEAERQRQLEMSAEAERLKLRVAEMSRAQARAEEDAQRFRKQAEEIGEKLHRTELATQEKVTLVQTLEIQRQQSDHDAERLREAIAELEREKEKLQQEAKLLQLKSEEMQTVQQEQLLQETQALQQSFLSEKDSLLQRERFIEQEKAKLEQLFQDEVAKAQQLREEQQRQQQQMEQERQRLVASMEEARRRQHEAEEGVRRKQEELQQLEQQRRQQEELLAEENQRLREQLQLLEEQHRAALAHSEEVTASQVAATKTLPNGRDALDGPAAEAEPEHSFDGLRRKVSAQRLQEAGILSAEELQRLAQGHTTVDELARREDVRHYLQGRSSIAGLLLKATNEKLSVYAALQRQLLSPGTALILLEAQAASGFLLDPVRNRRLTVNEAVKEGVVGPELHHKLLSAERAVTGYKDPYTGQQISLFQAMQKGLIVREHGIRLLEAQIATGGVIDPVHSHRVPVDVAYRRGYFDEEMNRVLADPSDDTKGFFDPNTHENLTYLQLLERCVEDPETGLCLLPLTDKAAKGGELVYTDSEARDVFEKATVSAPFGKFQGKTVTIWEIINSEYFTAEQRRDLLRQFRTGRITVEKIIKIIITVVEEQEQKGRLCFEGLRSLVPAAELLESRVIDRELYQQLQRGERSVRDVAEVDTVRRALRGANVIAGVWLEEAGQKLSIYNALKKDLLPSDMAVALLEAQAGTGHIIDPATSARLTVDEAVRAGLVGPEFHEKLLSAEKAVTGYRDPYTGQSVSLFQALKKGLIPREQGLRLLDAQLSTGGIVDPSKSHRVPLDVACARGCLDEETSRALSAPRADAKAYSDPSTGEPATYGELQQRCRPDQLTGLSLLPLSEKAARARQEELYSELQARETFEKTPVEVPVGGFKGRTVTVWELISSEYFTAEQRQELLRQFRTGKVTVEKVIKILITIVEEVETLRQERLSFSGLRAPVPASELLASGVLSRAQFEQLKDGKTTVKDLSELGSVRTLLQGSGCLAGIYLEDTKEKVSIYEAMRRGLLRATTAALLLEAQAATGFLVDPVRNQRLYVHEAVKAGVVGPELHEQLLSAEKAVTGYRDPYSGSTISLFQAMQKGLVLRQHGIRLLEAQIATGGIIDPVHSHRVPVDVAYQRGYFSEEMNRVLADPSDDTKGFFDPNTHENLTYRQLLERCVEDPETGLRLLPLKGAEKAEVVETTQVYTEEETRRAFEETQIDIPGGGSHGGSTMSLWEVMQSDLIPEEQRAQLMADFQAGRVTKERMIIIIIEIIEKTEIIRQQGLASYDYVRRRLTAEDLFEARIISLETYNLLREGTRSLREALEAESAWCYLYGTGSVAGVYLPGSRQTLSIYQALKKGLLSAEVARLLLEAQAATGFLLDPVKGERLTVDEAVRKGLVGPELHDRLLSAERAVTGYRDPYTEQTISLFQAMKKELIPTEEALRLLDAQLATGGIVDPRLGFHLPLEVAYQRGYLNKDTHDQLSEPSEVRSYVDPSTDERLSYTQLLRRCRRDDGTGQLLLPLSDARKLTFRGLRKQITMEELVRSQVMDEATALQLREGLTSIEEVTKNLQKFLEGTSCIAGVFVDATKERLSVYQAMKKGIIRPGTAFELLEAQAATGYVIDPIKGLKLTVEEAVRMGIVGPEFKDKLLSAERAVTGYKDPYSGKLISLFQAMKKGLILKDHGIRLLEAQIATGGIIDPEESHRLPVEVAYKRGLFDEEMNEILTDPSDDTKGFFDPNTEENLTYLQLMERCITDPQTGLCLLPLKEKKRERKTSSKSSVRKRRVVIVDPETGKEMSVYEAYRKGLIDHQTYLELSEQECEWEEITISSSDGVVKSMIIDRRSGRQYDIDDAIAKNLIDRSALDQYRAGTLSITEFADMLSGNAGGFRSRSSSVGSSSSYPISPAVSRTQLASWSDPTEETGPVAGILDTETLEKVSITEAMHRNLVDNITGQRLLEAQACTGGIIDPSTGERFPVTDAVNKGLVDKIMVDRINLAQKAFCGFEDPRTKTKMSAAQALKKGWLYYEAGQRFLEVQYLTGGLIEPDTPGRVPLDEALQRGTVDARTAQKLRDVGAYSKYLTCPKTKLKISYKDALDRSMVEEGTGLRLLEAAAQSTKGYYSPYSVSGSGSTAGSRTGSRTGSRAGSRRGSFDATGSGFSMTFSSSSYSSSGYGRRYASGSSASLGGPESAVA

What follows are compounds tested against E3 ubiquitin-protein ligase SIAH1 (Homo sapiens) (UniProt Q8IUQ4) (assay: Siah-1 peptide-binding antagonists, primary screen, biochemical, fluorescence polarization, rhodamine-plectin, uHTS (AID 1817;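 also: plate controls were Siah plus tracer with DMSO for no effect and tracer alone without Siah for full effect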)). Details: Siah-1 / rhodamine-plectin peptide fluorescence polarization; at 20 µM; active compounds read high.

SMILES | displacement
CP(=O)(Nc1ccccc1F)Oc1ccccc1 (stereo not given) | inactive: 3.8%
CC(C)c1ccc(OP(C)(=O)Nc2ccc(SC(F)(F)F)cc2)cc1 (stereo not given) | inactive: -0.9%
O=C(OC1CN2CCC1CC2)c1ccc([N+](=O)[O-])cc1 (stereo not given) | inactive: 0.9%
O=C(OCCN1CCN(CCOCc2ccccc2)CC1)C(O)(c1ccccc1)c1ccccc1 | inactive: 5.3%
COc1ccc2c(c1O)-c1c(O)c(OC)cc3c1[C@H](C2)[N+](C)(C)CC3.O=[N+]([O-])c1cc([N+](=O)[O-])c([O-])c([N+](=O)[O-])c1[O-] | inactive: -1.7%
CCOC(=O)c1ccc(NP(C)(=O)Oc2ccc(F)cc2)cc1 (stereo not given) | inactive: -12.6%
COc1ccc(OP(C)(=O)Nc2ccc(SC(F)(F)F)cc2)cc1 (stereo not given) | inactive: -0.2%
CCN(CC)CCCOC(=O)C(O)(c1ccccc1)C1CCCCC1 (stereo not given) | inactive: 3.9%
CP(=O)(Nc1ccccc1)Oc1ccc(F)cc1 (stereo not given) | inactive: 0.2%
CCCCCOc1ccc(NP(C)(=O)Oc2ccc(Cl)cc2Cl)cc1 (stereo not given) | inactive: -0.8%
O=[N+]([O-])c1cc([N+](=O)[O-])c(OC2CCCCC2O)c([N+](=O)[O-])c1 (stereo not given) | inactive: 5.7%
COc1ccc(OP(C)(=O)Nc2cccc(Br)c2)cc1 (stereo not given) | inactive: -6.6%
CN(C)CCOC(=O)C(O)(c1ccccc1)C1CCCCC1 (stereo not given) | inactive: -0.5%
COc1ccc(NP(C)(=O)Oc2ccccc2OC)cc1 (stereo not given) | inactive: 5.2%
O=[N+]([O-])c1ccc(OP2(=O)COCCO2)cc1 (stereo not given) | inactive: 7.4%
O=[N+]([O-])c1cc([N+](=O)[O-])c(NCC2CCS(=O)(=O)C2)c([N+](=O)[O-])c1 (stereo not given) | inactive: -11.1%
Cc1cc(-c2cccc3ccccc23)c(C)cn1.O=[N+]([O-])c1cc([N+](=O)[O-])c(O)c([N+](=O)[O-])c1 | inactive: -6.4%
CP(=O)(Nc1ccc(SC(F)(F)F)cc1)Oc1ccc(F)cc1 (stereo not given) | inactive: 0.7%
CCOP(C)(=S)SCC(=O)NC(C)(CC)C(=O)O (stereo not given) | inactive: -5.6%
CP(=O)(Nc1ccc2c(c1)OCCO2)Oc1ccccc1 (stereo not given) | inactive: 0.9%
Cc1ccccc1NP(C)(=O)Nc1ccccc1C | inactive: -4.2%
CCN(CC)CC(O)COC(=O)C(O)(c1ccccc1)C1CCCCC1 (stereo not given) | inactive: 0.1%

SMILES | displacement
COc1ccc(OP(C)(=O)Nc2ccc(Br)cc2)cc1 (stereo not given) | inactive: 2.7%
COc1ccccc1OP(C)(=O)Nc1c(C)n(C)n(-c2ccccc2)c1=O (stereo not given) | inactive: -0.7%
O=C(OCCCN1CCCC1)C(O)(c1ccccc1)C1CCCCC1 (stereo not given) | inactive: -1.4%
CP(=O)(Oc1ccccc1)N1CCOC1=O (stereo not given) | inactive: 0.4%
CCc1ccc(OP(C)(=O)Nc2cccnc2)cc1 (stereo not given) | inactive: 9%
COc1ccccc1OP(C)(=O)Nc1ccccc1Br (stereo not given) | inactive: 1.7%
CC(C)(C)c1ccc(OP(C)(=O)O)cc1 | inactive: 0.2%
CP(=O)(Nc1ccc(Cl)cc1)Oc1ccc(F)cc1 (stereo not given) | inactive: 3.9%
CN(C)C(=O)c1c([N+](=O)[O-])cc([N+](=O)[O-])cc1[N+](=O)[O-] | inactive: -1.7%
CCOC(=O)c1ccc(NP(C)(=O)Oc2ccc(Cl)cc2)cc1 (stereo not given) | inactive: 3.2%
CP(=O)(OC12CC3CC(CC(C3)C1)C2)OC12CC3CC(CC(C3)C1)C2 | inactive: 3.1%
Cc1cc(C)cc(OP(C)(=O)Nc2cccc(C(F)(F)F)c2)c1 (stereo not given) | inactive: -0.6%
COc1ccccc1OP(C)(=O)Nc1ccc(C)c(C)c1 (stereo not given) | inactive: 3.5%
COc1ccc(OP(C)(=O)Nc2ccccc2Br)cc1 (stereo not given) | inactive: 10.3%
Cc1nc2ccc3ccccc3c2o1.O=[N+]([O-])c1cc([N+](=O)[O-])c(O)c([N+](=O)[O-])c1 | inactive: 1.8%
CP(=O)(Nc1ccc(Cl)cc1Cl)Oc1ccccc1 (stereo not given) | inactive: 5.1%
CP(=O)(OCCOc1ccccc1)OCCOc1ccccc1 | inactive: 2.7%
COc1ccccc1OP(C)(=O)Nc1ccc(Br)cc1 (stereo not given) | inactive: -0.3%
COc1ccc(OP(C)(=O)Nc2ccccn2)cc1 (stereo not given) | inactive: 2.5%
CN(C)CCOC(=O)C(O)(c1ccccc1)C1CCCC1 (stereo not given) | inactive: -1.6%
Cc1c(NP(C)(=O)Oc2ccc(C(C)C)cc2)c(=O)n(-c2ccccc2)n1C (stereo not given) | inactive: -4.8%
O=[N+]([O-])c1cc([N+](=O)[O-])c(Nc2ccccn2)c([N+](=O)[O-])c1 | inactive: 1.8%

SMILES | displacement
CP(=O)(Nc1ccccn1)Oc1ccccc1 (stereo not given) | inactive: 1.1%
COc1ccccc1OP(C)(=O)Nc1ccc(C)cc1C (stereo not given) | inactive: 11.6%
CCc1ccc(OP(C)(=O)O)cc1 | inactive: -1.5%
CCN(CC)CCCOC(=O)C(O)(c1ccccc1)c1ccccc1 | inactive: 0.4%
O=[N+]([O-])c1ccc2c(c1)C=Nc1ccccc1O2 | inactive: -0.5%
CC(C)(C)c1ccc(OP(C)(=O)Nc2ccc(SC(F)(F)F)cc2)cc1 (stereo not given) | inactive: 8.8%
Cc1cccc(C)c1OP(C)(N)=O (stereo not given) | inactive: 0.3%
COc1ccccc1OP(C)(=O)Nc1ccc(C)cc1 (stereo not given) | inactive: 5.1%
Cc1ccc(NP(C)(=O)Oc2ccccc2)c(C)c1 (stereo not given) | inactive: -2.9%
CCOC(=O)c1ccc(NP(C)(=O)Oc2ccccc2)cc1 (stereo not given) | inactive: 1.2%
Cc1cc(C)cc(OP(C)(N)=O)c1 (stereo not given) | inactive: 2.7%
COc1ccccc1OP(C)(=O)Nc1cc(Cl)ccc1C (stereo not given) | inactive: 1%
COc1ccc(OP(C)(=O)Nc2cccc(F)c2)cc1 (stereo not given) | inactive: -1.1%
CP(=S)(Nn1cnnc1)Oc1ccccc1 (stereo not given) | inactive: -1.4%
CP(=O)(Nc1ccccc1Br)Oc1ccccc1 (stereo not given) | inactive: -2%
COc1ccccc1OP(C)(=O)Nc1ccccc1 (stereo not given) | inactive: 13.1%
CP(=O)(Nc1ccc(SC(F)(F)F)cc1)Oc1ccc(Cl)cc1 (stereo not given) | inactive: 7.9%
Cc1cccc(C)c1OP(C)(=O)Nc1ccc(SC(F)(F)F)cc1 (stereo not given) | inactive: 1.5%
CP(=O)(Oc1ccccc1)OC(c1ccccc1)C(F)(F)F (stereo not given) | inactive: 6.3%
CP(=O)(NC(=O)Nc1ccccc1)Oc1ccccc1 (stereo not given) | inactive: -0.5%
CCc1ccc(OP(C)(=O)N2CCN(c3ccc([N+](=O)[O-])cc3)CC2)cc1 (stereo not given) | inactive: 13.2%
Cc1cc(C)cc(OP(C)(=O)Nc2ccc(SC(F)(F)F)cc2)c1 (stereo not given) | inactive: 4.6%

SMILES | displacement
CCOC(=O)c1ccc(NP(C)(=O)Oc2ccc(OC)cc2)cc1 (stereo not given) | inactive: 0.7%
CCOP(C)(=S)SCC(=O)NC(C)C(=O)O (stereo not given) | inactive: -2.7%
CP(=O)(Nc1ccccn1)Oc1ccc(Cl)cc1 (stereo not given) | inactive: -6.9%
O=[N+]([O-])c1cc([N+](=O)[O-])c(-n2nnc3ccccc32)c([N+](=O)[O-])c1 | inactive: -0.9%
Cc1nc2ccc3ccccc3c2s1.O=[N+]([O-])c1cc([N+](=O)[O-])c(O)c([N+](=O)[O-])c1 | inactive: 5.9%
O=[N+]([O-])c1cc([N+](=O)[O-])c(Nc2nnnn2CCO)c([N+](=O)[O-])c1 | inactive: 1.75%
CCOC(=O)C(CC)C1=NC(C)(C)Cc2ccccc21.O=[N+]([O-])c1cc([N+](=O)[O-])c(O)c([N+](=O)[O-])c1 (stereo not given) | inactive: 5.1%
CN1CCCCC1COC(=O)C1(O)c2ccccc2CCc2ccccc21 (stereo not given) | inactive: -7%
COc1ccccc1OP(C)(=O)Nc1c(C)cccc1C (stereo not given) | inactive: 4.7%
CCCOc1ccc(NP(C)(=O)Oc2ccc(Cl)cc2)cc1 (stereo not given) | inactive: 6.1%
CP(=O)(Nc1ccc(SC(F)(F)F)cc1)Oc1ccccc1 (stereo not given) | inactive: 0.4%
O=C(O)c1cccc(Nc2c([N+](=O)[O-])cc([N+](=O)[O-])cc2[N+](=O)[O-])c1 | inactive: 0%
CC1=NCCc2c1[nH]c1ccccc21.O=[N+]([O-])c1cc([N+](=O)[O-])c(O)c([N+](=O)[O-])c1 | inactive: -7%
COc1ccccc1OP(C)(=O)Nc1cccc(Br)c1 (stereo not given) | inactive: -0.9%
CCOC(=O)c1ccc(NP(C)(=O)Oc2cc(C)cc(C)c2)cc1 (stereo not given) | inactive: -1.2%
Cc1cc(C)cc(OP(C)(=O)Nc2ccc(C)cc2C)c1 (stereo not given) | inactive: 3.8%
Cc1ccc(C)c(NP(C)(=O)Oc2ccccc2)c1 (stereo not given) | inactive: -3.2%
Cc1cc(C)cc(OP(C)(=O)Nc2ccccn2)c1 (stereo not given) | inactive: -1.4%
CP(=O)(Nc1cccc(Br)c1)Oc1ccccc1 (stereo not given) | inactive: -0.1%
